In ChEMBL document CHEMBL3352459, “Synthesis and evaluation of N-acyl-substituted 1,2-benzisothiazol-3-one derivatives as caspase-3 inhibitors” (Bioorg Med Chem, 2014) one finds IC50 data, which are given here for one molecule.

pIC50: −log10 of the molar value.

This test deals with T1, Caspase-3 (Homo sapiens, UniProt P42574).
T1 sequence (P42574 whole entry): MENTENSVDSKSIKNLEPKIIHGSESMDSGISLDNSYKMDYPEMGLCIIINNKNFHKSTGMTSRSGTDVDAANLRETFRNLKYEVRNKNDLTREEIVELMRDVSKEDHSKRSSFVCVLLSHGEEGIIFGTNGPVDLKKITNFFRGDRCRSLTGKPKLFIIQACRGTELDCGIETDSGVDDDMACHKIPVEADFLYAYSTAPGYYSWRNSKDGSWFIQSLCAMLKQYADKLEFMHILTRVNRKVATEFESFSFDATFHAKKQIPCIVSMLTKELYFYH
Briefly: Inhibition of recombinant human caspase-3 activity using Ac-DEVD-AMC as substrate preincubated for 10 mins by fluorescence assay.

Consider `CC(=O)N[C@@H](CC(=O)O)C(=O)N[C@@H](CCC(=O)O)C(=O)N[C@H](C(=O)N[C@H](C=O)CC(=O)O)C(C)C`, for which the negative-log IC50 (pIC50) was 7.12.

Usually pIC50 stands for −log10 of the IC50, conventionally taken in molar units.
